{"source": "published antibiotic growth screens (doi:10.1038/s41589-023-01349-8)", "note": "The other results are listed elsewhere or left out.", "data": [{"system": "A. baumannii ATCC 17978", "experiment": "relative growth (fraction of control); higher = less inhibition", "conditions": "50 µM", "values": [{"smiles": "Nc1nc(S)c2nc[nH]c2n1", "relative growth": 0.91}, {"smiles": "CCC(=O)N1CCC[C@](C)(C(=O)NS(=O)(=O)c2ccc(S(C)(=O)=O)cc2)C1", "relative growth": 1.02}, {"smiles": "CC(=O)CC(c1ccccc1)c1c(O)c2ccccc2oc1=O", "note": "(stereo not given)", "relative growth": 1.13}, {"smiles": "NS(=O)(=O)c1cc2c(cc1Cl)NC(C1CC3C=CC1C3)NS2(=O)=O", "note": "(stereo not given)", "relative growth": 0.86}, {"smiles": "O=C1NS(=O)(=O)c2ccccc21", "relative growth": 1.05}, {"smiles": "COC(=O)/C=C/c1cc(OC)c(OC)c(OC)c1", "relative growth": 1.01}, {"smiles": "C[C@H](O)C#Cc1ccc2c(c1)O[C@H](CN(C)C(=O)c1ccccc1)[C@@H](C)CN([C@@H](C)CO)S2(=O)=O", "relative growth": 1}, {"smiles": "CCCNC(=O)N(C)C[C@@H]1Oc2ncc(-c3ccc(C(=O)N(C)C)cc3)cc2C(=O)N([C@@H](C)CO)C[C@H]1C", "relative growth": 0.965}, {"smiles": "COCCNC(=O)C[C@@H]1CC[C@@H]2[C@H](COC[C@@H](O)CN2C(=O)Nc2ccccc2OC)O1", "relative growth": 1.03}, {"smiles": "Cl.NNc1nncc2ccccc12", "relative growth": 1.08}, {"smiles": "Cc1ccc(Nc2nc3ccccc3s2)cc1Cl", "relative growth": 1}, {"smiles": "COc1ccc(OC)c(S(=O)(=O)NCCO)c1", "relative growth": 1.02}, {"smiles": "COC(=O)c1c(CC[C@@H](COC(=O)NCCCCCC(=O)NO)NC(=O)N[C@@H](Cc2ccccc2)Cn2cc(-c3ccccc3)nn2)oc(C(=O)N2CCOCC2)c1C(=O)OC", "relative growth": 1.03}, {"smiles": "O=C(C[C@H]1C=C[C@@H](NC(=O)Cc2ccccn2)[C@H](CO)O1)NCCCN1CCOCC1", "relative growth": 1.05}, {"smiles": "CN1CC(=O)N=C1NC(=O)[C@H]1CCCN(S(=O)(=O)c2ccc3c(c2)oc(=O)n3C)C1", "relative growth": 1.04}, {"smiles": "CCOc1ccc(Cc2nccc3cc(OCC)c(OCC)cc23)cc1OCC.Cl", "relative growth": 1.02}, {"smiles": "C[C@H](CC(=O)C1OC1(C)C)[C@H]1C(=O)C[C@@]2(C)C3=CCC4C(C)(C)[C@@H](O[C@@H]5OC[C@@H](O)[C@H](O)[C@H]5O)CC[C@@]45C[C@@]35[C@@H](O)C[C@]12C", "note": "(stereo not given in full)", "relative growth": 0.99}, {"smiles": "C=CCC[C@H](Cc1ccc(F)cc1)C(=O)OC[C@@H](NC(=O)[C@@H](CC=C)CC(=O)N[C@H](CO)Cc1ccccc1)C(C)(C)C", "relative growth": 0.906}, {"smiles": "C[n+]1ccccc1C=NO.[Cl-]", "relative growth": 1.18}, {"smiles": "O=C(C[C@@H]1CC[C@@H]2[C@H](COC[C@@H](O)CN2C(=O)c2ccc3c(c2)OCO3)O1)NCCN1CCCCC1", "relative growth": 0.998}, {"smiles": "C=CC1=C(C(=O)O)N2C(=O)[C@@H](NC(=O)/C(=N\\O)c3csc(N)n3)[C@H]2SC1", "relative growth": 0.151}, {"smiles": "CN1C(CCl)Nc2cc(Cl)c(S(N)(=O)=O)cc2S1(=O)=O", "note": "(stereo not given)", "relative growth": 0.964}, {"smiles": "C[C@@H]1CN([C@H](C)CO)S(=O)(=O)c2ccc(C#C[C@@H](C)O)cc2O[C@@H]1CN(C)C(=O)c1ccncc1", "relative growth": 1.08}, {"smiles": "NCCCCCc1nnc(SCC(N)=O)o1", "relative growth": 1.19}, {"smiles": "OCc1ccccc1O[C@@H]1O[C@H](CO)[C@@H](O)[C@H](O)[C@H]1O", "relative growth": 0.988}, {"smiles": "CC(C)CC#Cc1ccc2c(c1)O[C@H](CN(C)C(=O)Cc1cccnc1)[C@H](C)CN([C@@H](C)CO)S2(=O)=O", "relative growth": 0.878}, {"smiles": "CC(C)(C)NCC(O)c1cc(O)cc(O)c1.O=S(=O)(O)O", "note": "(stereo not given)", "relative growth": 1.17}, {"smiles": "O=C(C[C@H]1C=C[C@@H](NS(=O)(=O)c2ccc(F)cc2)[C@H](CO)O1)N1CCC(Cc2ccccc2)CC1", "relative growth": 0.79}, {"smiles": "CC/C(=C\\C(=O)O)c1ccccc1", "relative growth": 1.05}, {"smiles": "CCS(=O)(=O)NCC[C@@H]1CC[C@@H](NS(=O)(=O)c2cccc(F)c2)[C@H](CO)O1", "relative growth": 0.915}, {"smiles": "CNCCCC12CCC(c3ccccc31)c1ccccc12.Cl", "relative growth": 0.971}, {"smiles": "O=C(N[C@H]1CC[C@H](CC(=O)N2CCOCC2)O[C@H]1CO)c1ccc2c(c1)OCO2", "relative growth": 0.939}, {"smiles": "O=C(C[C@@H]1CC=CC[C@@H](NC(=O)OCC2c3ccccc3-c3ccccc32)C(=O)OC[C@@H](Cc2c[nH]c3ccccc23)NC1=O)N[C@H](CO)Cc1ccccc1", "relative growth": 0.855}, {"smiles": "CC(=O)NS(=O)(=O)c1ccc(N)cc1", "relative growth": 0.986}, {"smiles": "O=C1CN(c2ccccc2)C=NN1", "relative growth": 0.892}, {"smiles": "O=S(=O)(NCCN(C/C=C/c1ccc(F)cc1)C/C=C/c1ccc(F)cc1)c1cccc2cnccc12", "relative growth": 1.03}, {"smiles": "Cc1cn([C@H]2C=C[C@@H](CO)O2)c(=O)[nH]c1=O", "relative growth": 0.952}, {"smiles": "Oc1ccc([C@H]2Oc3cc(O)cc(O)c3C[C@H]2O)cc1", "relative growth": 0.941}, {"smiles": "C=C[C@@](C)(O)CCC1C(=C)C[C@H](OC(C)=O)C2C(C)(C)CCCC12C", "note": "(stereo not given in full)", "relative growth": 1.09}, {"smiles": "N=C(N)c1ccc(OCCCCCOc2ccc(C(=N)N)cc2)cc1.O=S(=O)(O)CCO.O=S(=O)(O)CCO", "relative growth": 0.97}, {"smiles": "O=C1CCOC[C@@H]2CCCN12", "relative growth": 1.09}, {"smiles": "N=C(N)N1CCc2ccccc2C1.O=S(=O)(O)O", "relative growth": 0.929}, {"smiles": "O=C(N[C@@H]1C=C[C@H](CC(=O)N2CCOCC2)O[C@@H]1CO)c1ccccn1", "relative growth": 1}, {"smiles": "CNS(=O)(=O)c1cccs1", "relative growth": 1.01}, {"smiles": "COc1cccc(-c2cn(CC[C@H]3CC[C@@H](NC(=O)CN(C)C)[C@H](CO)O3)nn2)c1", "relative growth": 1.12}, {"smiles": "CCNC(=O)C[C@H]1CC[C@H]2[C@@H](COC[C@@H](O)CN2S(=O)(=O)c2ccc(Oc3ccccc3)cc2)O1", "relative growth": 1.05}, {"smiles": "O=C(N[C@@H]1CC[C@H](CC(=O)N2CCOCC2)O[C@@H]1CO)c1ccc2c(c1)OCO2", "relative growth": 1.19}, {"smiles": "Cc1nccn1C[C@H](C)C(=O)O", "relative growth": 1.01}, {"smiles": "O=C1OCCN/C1=C/C(=O)c1ccccc1", "relative growth": 1.03}, {"smiles": "COCC(=O)Nc1ccc2c(c1)C(=O)N(C)[C@H]1CC[C@H](CC(=O)NCc3ccc(OC)cc3)O[C@H]1CO2", "relative growth": 1.05}, {"smiles": "O=CN1CCN(C(=O)c2ccccc2)CC1", "relative growth": 1.08}, {"smiles": "CN(C)Cc1cn(CC[C@H]2CC[C@@H](NS(=O)(=O)c3ccccc3)[C@@H](CO)O2)nn1", "relative growth": 0.974}, {"smiles": "O=c1c(O[C@@H]2O[C@H](CO)[C@H](O)[C@H](O)[C@H]2O)c(-c2ccc(O)c(O)c2)oc2cc(O)cc(O)c12", "relative growth": 1.09}, {"smiles": "O=P([O-])(O)C(O)(Cc1cccnc1)P(=O)(O)O.[Na+]", "relative growth": 0.921}, {"smiles": "Cc1c(-c2cnccn2)ssc1=S", "relative growth": 1.29}, {"smiles": "COc1ccc([Si](C)(C)[C@H]2[C@H](CCO)O[C@@]3(C(=O)N(Cc4ccc(N5C(=O)c6cccc7cccc5c67)cc4)c4ccccc43)[C@@H]2C)cc1", "relative growth": 1.22}, {"smiles": "C=C[C@H]1CN2CC[C@H]1C[C@@H]2[C@@H](O)c1ccnc2ccc(OC)cc12.O=C(O)[C@H](O)[C@@H](O)[C@H](O)[C@H](O)CO", "relative growth": 0.944}, {"smiles": "CCCCNC(=O)N1CCN(C)CC1", "relative growth": 0.928}, {"smiles": "CCOC(=O)CN1C[C@]23C=C[C@H](O2)[C@@H](C(=O)NCc2ccc(OC)cc2)[C@H]3C1=O", "relative growth": 0.992}, {"smiles": "C[C@H](CO)N1C[C@H](C)[C@@H](CN(C)C(=O)C2CCOCC2)Oc2ncc(C#Cc3cccc(F)c3)cc2C1=O", "relative growth": 0.971}, {"smiles": "O=C(C[C@@H]1CC[C@H]2[C@@H](COC[C@@H](O)CN2Cc2cc(F)ccc2F)O1)N[C@@H]1CCN(Cc2ccccc2)C1", "relative growth": 1.11}, {"smiles": "CC(=O)OCC(=O)[C@@]1(O)CCC2C3CCC4=CC(=O)C=C[C@]4(C)[C@@]3(F)[C@@H](O)C[C@@]21C", "note": "(stereo not given in full)", "relative growth": 1.01}, {"smiles": "CN(C)CC(=O)N[C@H]1CC[C@H](CCn2cc(CN(C)C)nn2)O[C@@H]1CO", "relative growth": 0.964}, {"smiles": "O=C(O)/C=C/C(=O)O.OCCOCCN1CCN(C2=Nc3ccccc3Sc3ccccc32)CC1", "relative growth": 1.05}, {"smiles": "COc1ccc(C(=O)Nc2ccc(CN3C(=O)[C@]4(O[C@H](CCO)[C@@H]([Si](C)(C)F)[C@@H]4C)c4ccccc43)cc2)cc1", "relative growth": 0.822}, {"smiles": "O=C(C[C@H]1C[C@@H]2c3cc(NC(=O)NC4CCCC4)ccc3O[C@@H]2[C@H](CO)O1)NCc1ccc(Oc2ccccc2)cc1", "relative growth": 0.805}, {"smiles": "Cn1cnc(S(=O)(=O)N2C[C@H](O)COC[C@@H]3O[C@@H](CC(=O)NCc4cc(F)cc(F)c4)CC[C@H]32)c1", "relative growth": 1}, {"smiles": "C=C(O)C(=O)OCC", "relative growth": 0.934}, {"smiles": "O=c1[nH]c(=O)n([C@H]2C[C@H](O)C(CO)O2)cc1I", "note": "(stereo not given in full)", "relative growth": 1.02}, {"smiles": "C[C@@H](NC(=O)COc1ccccc1)C(=O)O", "relative growth": 1}, {"smiles": "NCC[C@H]1CC[C@H](NC(=O)C2CC2)[C@H](CO)O1", "relative growth": 1.05}, {"smiles": "C[C@]12CC[C@@H]3c4ccc(OC(=O)c5ccccc5)cc4CC[C@H]3[C@@H]1CC[C@@H]2O", "relative growth": 1.08}, {"smiles": "COc1ccc(S(=O)(=O)N2C[C@H](O)COC[C@H]3O[C@@H](CC(=O)NCCN4CCCCC4)CC[C@@H]32)cc1", "relative growth": 1.16}, {"smiles": "COCCCC/C(=N\\OCCN)c1ccc(C(F)(F)F)cc1.O=C(O)/C=C\\C(=O)O", "relative growth": 1.09}, {"smiles": "O=C(NCC(F)(F)F)[C@@H]1c2ccccc2C(=O)N(Cc2cc(F)cc(C(F)(F)F)c2)[C@H]1c1ccc(CO)cc1", "relative growth": 1.17}, {"smiles": "CCc1nnc(SCC(=O)O)n1N", "relative growth": 1.14}, {"smiles": "CN1CCN(C(c2ccccc2)c2ccccc2)CC1", "relative growth": 0.903}, {"smiles": "C[C@H](CO)N1C[C@H](C)[C@@H](CN(C)C(=O)C2CCC2)Oc2cc(-c3ccc(C(=O)N(C)C)cc3)ccc2S1(=O)=O", "relative growth": 1.06}, {"smiles": "O=C(C[C@H]1CC[C@H]2[C@@H](COC[C@H](O)CN2C(=O)Nc2ccc3c(c2)OCO3)O1)N1CCN(c2ccccc2)CC1", "relative growth": 1}, {"smiles": "O=C1NC(=S)N/C1=C\\c1ccco1", "relative growth": 0.939}, {"smiles": "CC(=O)O[C@@H]1CC2C(C)(C)C=CC[C@]2(C)C2CC[C@@]3(C)C(c4ccoc4)OC(=O)[C@H]4O[C@]43[C@@]21C", "note": "(stereo not given in full)", "relative growth": 0.982}, {"smiles": "CC1(C)[C@@H](O[C@@H]2O[C@H](C(=O)O)[C@@H](O)[C@H](O)[C@H]2O[C@@H]2O[C@H](C(=O)O)[C@@H](O)[C@H](O)[C@H]2O)CC[C@]2(C)[C@H]3C(=O)C=C4C5C[C@@](C)(C(=O)O)CC[C@]5(C)CC[C@@]4(C)[C@]3(C)CC[C@@H]12", "note": "(stereo not given in full)", "relative growth": 1.01}, {"smiles": "CCCNC(C)(C)COC(=O)c1ccccc1.Cl", "relative growth": 1.08}, {"smiles": "OCCN(CCO)c1nc(N2CCCCC2)c2nc(N(CCO)CCO)nc(N3CCCCC3)c2n1", "relative growth": 1.14}, {"smiles": "CO[C@H]1CN(C)C(=O)c2cc(NC(=O)Nc3ccccc3F)ccc2OC[C@H](C)N(Cc2ccccc2C(=O)O)C[C@H]1C", "relative growth": 1.05}]}]}
